Publication PMC6203815 (2018)

Target: T1, Pfs48/45 6C domain (NF54) (Plasmodium falciparum)
T1 chain: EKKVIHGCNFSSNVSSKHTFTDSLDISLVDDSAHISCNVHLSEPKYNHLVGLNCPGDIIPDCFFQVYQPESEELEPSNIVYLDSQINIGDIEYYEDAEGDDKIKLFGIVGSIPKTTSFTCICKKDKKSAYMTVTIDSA
Assay: BLI

B1: 85RF45.1 Fab (Fab, V domains shown)
VH: EVQLVESGGGLLQPGRSLKLSCVASGFTFNNYWMSWIRQAPGKGLEWIASISNIGGTIYYPDSVKGRFTISRDSAQNTLYLQMNSLRSEDTATYYCTRDLRMSDYFDYWGQGVMVTVSS
VL: QFVLSQPNSVSTNLGSTVKLSCKRSTGNIGSNYVSWYQHHEGRSPTTMIYRDDQRPDGVPDRFSGSIDRSSNSALLTIDNVQTEDEAAYFCHSYSTGMYIFGGGTKLTVL
modifications: N-linked glycan at N303 (a NAG residue left after Endo H treatment in the crystals)
  Kd: 3.2 nM
